# Binding of CDR-mutated scFvs to a peptide of the spike HR2 region

Source: Engelhart et al. 2022 (doi:10.1038/s41597-022-01779-4), MIT Lincoln Laboratory and A-Alpha Bio; data file from the FLAb repository.

The target is the same throughout: PDVDLGDISGINAS, from the HR2 region of SARS-CoV-2 spike.

The variants keep the heavy chain, the linker and the frameworks of Ab-14 (scFv order VH, the linker GGGGSGGGGSGGGGS, VL).
VH: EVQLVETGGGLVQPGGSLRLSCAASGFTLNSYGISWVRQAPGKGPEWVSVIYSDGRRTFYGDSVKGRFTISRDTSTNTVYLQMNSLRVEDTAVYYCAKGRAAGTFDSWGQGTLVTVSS
VL: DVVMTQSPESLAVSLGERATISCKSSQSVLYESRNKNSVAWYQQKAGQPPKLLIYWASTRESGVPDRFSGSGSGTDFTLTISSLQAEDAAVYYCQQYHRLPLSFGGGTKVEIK

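The starting antibody came from a phage panning campaign against this peptide. In library AAYL50, one, two or three CDR residues were substituted; doubles and triples were drawn at random. The scFvs were displayed on barcoded MATa yeast, the peptide on MATalpha yeast. The frequency of each diploid, read from paired DNA barcodes, reflects how well the two displayed proteins bind. A regression on co-assayed BCL2-family reference pairs converts the normalised counts of each replicate to an apparent Kd. Mating was done three times.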

Each variant is given by its three light chain CDRs, as the data file delimits them; those of the parent are KSSQSVLYESRNKNSVA, WASTRES, QQYHRLPLS. Every variant below is changed at S38 of the VL (sequential numbering). Values are apparent Kd, the geometric mean of the replicates that gave a signal; lower means stronger binding. A pair that was not seen in any replicate is written "nd"; this usually means weak binding, but a binder can also be missed. The list is sorted by this average, lowest first, undetected variants last. Three control strains display no target. For library AAYL50, 18% of the pairings with them gave a signal, with a median of 15 µM and one signal in twenty below 970 nM, so weak values seen in few replicates may be background.

The variant KSSGSVLYESRNKNPVA / NASTRES / QQYHRLPLS showed 2.2 nM (3 of 3 replicates). For KSSMSVEYESRNKNPVA / WASTRES / QQYHRLPLS, the assay gave 2.9 nM (3 of 3 replicates). The variant KSSQSHLYESRNKNIVA / NASTRES / QQYHRLPLS gave 4.8 nM (3 of 3 replicates). The variant WSSQSVLYESRNKNNVA / WASHRES / QQYHRLPLS showed 13 nM (3 of 3 replicates). The variant ESQQSVLYESRNKNAVA / WASTRES / QQYHRLPLS gave 13 nM (3 of 3 replicates). The variant KSSQSVLYESRNKNHVA / MAATRES / QQYHRLPLS gave 14 nM (3 of 3 replicates). The variant KSSQSVLYESRNKNVVA / WASHRES / QQYHRDPLS gave 14 nM (3 of 3 replicates). The variant KSSSSVLYESRNKNPVA / WASTRES / QQYTRLPLS gave 54 nM (3 of 3 replicates).

The variant KSSQQNLYESRNKNDVA / WASTRES / QQYHRLPLS gave 77 nM (3 of 3 replicates). With KSSQSVLYSSRVKNPVA / WASTRES / QQYHRLPLS the result was 100 nM (3 of 3 replicates). For KASQSVLYSSRNKNFVA / WASTRES / QQYHRLPLS, the assay gave 260 nM (2 of 3 replicates). For KSSQSVWYESRNKNPVA / WASYRES / QQYHRLPLS, the assay gave 320 nM (1 of 3 replicates). For KSSQSVLYESRNKNTVA / WASTRQS / FQYHRLPLS, the assay gave 1.2 µM (1 of 3 replicates). With KSSQSVLYESRPKNKVA / WASVRES / QQYHRLPLS the result was 3.8 µM (3 of 3 replicates). For KSSQSVLYESRNKNHVA / WASTRRA / QQYHRLPLS, the assay gave 3.8 µM (2 of 3 replicates). With KSSQSVLYERRNKNLVA / WASTRES / QDYHRLPLS the result was 17 µM (1 of 3 replicates).

With KSSQWVLYESRNKNKVA / WASTRVS / QQYHRLPLS the result was 18 µM (2 of 3 replicates). The variant KSSQSVLYESDNKNNVA / WWSTRES / QQYHRLPLS gave 22 µM (1 of 3 replicates). The variant KSVQSVLYESRNKNEVA / WASWRES / QQYHRLPLS gave 24 µM (2 of 3 replicates). For GSSQSVLYESRNKNGVA / WASTRES / QQYHPLPLS, the assay gave 25 µM (1 of 3 replicates). With KSSQSVLYESRNKNFVA / WASSRES / QQYHRLPLS the result was 28 µM (2 of 3 replicates). The variant KSSKSVLYESRNKNPVA / WASTRES / IQYHRLPLS showed 45 µM (3 of 3 replicates). With KSFQSVLYESRNKNLVA / WASTRES / QQYHRLPLS the result was 54 µM (1 of 3 replicates). The variant KSSQSVLYESRNKNYVA / WASTIES / QQYHRLDLS gave 380 µM (1 of 3 replicates).

The variant KASQSVLYESRNKNCVA / WASTHES / QQYHRLPLS showed 770 µM (1 of 3 replicates). The variant KSSQSVLYRSRNKNEVA / WASTRES / QQYHRLPLS gave 850 µM (1 of 3 replicates). The variant KSSQSVLYESRNKNYVA / WASTNES / QQYHRLPLS gave nd (0 of 3 replicates). The variant KSSQSVLKESRNKNMVA / WASTRES / QQYHRLPYS showed nd (0 of 3 replicates). With KSSQSVLYESRNKNGVA / WASTRCF / QQYHRLPLS the result was nd (0 of 3 replicates). The variant KSSQSVLYESRVKNVVA / WASTRES / QQYHRLPLS gave nd (0 of 3 replicates). With KSSQSVLYESRNKNQVA / WAITSES / QQYHRLPLS the result was nd (0 of 3 replicates). For KSSQSVLYESRNKNYYM / WASTRES / QQYHRLPLS, the assay gave nd (0 of 3 replicates).

With KSSQSVLYESRNKNIVR / WASCRES / QQYHRLPLS the result was nd (0 of 3 replicates). With KYSQSVLYESRNKNRVC / WASTRES / QQYHRLPLS the result was nd (0 of 3 replicates). For KSSQSVLYESRNKNLVA / WASTRED / QQYHRLPLS, the assay gave nd (0 of 3 replicates). For KSSQSVLYESRNKNEVA / WAITRES / QQYHRLNLS, the assay gave nd (0 of 3 replicates). With KSSQSVLYESRAKNFVA / WASKRES / QQYHRLPLS the result was nd (0 of 3 replicates).

Extract of 3 entries:

For KSSQSVWYESRNKNPVA / WASYRES / QQYHRLPLS, the assay gave 320 nM (1 of 3 replicates).
For KSSQSVLYESRNKNLVA / WASTRED / QQYHRLPLS, the assay gave nd (0 of 3 replicates).
For KSSQSVLYESRVKNVVA / WASTRES / QQYHRLPLS, the assay gave nd (0 of 3 replicates).

For reference, the parent read 4.4 nM as the reference entry and 48 nM as a member of this library.